From PubChem BioAssay AID1984 (Sanford-Burnham Center for Chemical Genomics, 2009)
Only a part is listed here, and it is no random draw. The source made the active and inactive calls.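 Rule for the calls: active = EGFP signal decrease of at least 30% at 10 µM or well 3 SD below plate mean, unless failing retest; inactive = the rest, including hits failing retest or dose response.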

target: p/CIP-EGFP fusion (nuclear receptor coactivator 3, mouse) (UniProt Q05BA5); experiment: compounds lowering mouse p/CIP (NCOA3) protein levels – fluorescence, F442A cells, EGFP fusion, primary screen (AID 1984); conditions: 16 h, at 10 µM, hits give high values

SMILES | decrease of EGFP signal
COc1ccccc1OP(=O)(Nc1ccc(C)cn1)Oc1ccccc1OC | inactive: -12.7%
Clc1ccc(Cl)c(NC2=NCC(CBr)S2)c1 (stereo unspecified) | inactive: -0.4%
CN1CCCC(OC(=O)C(c2ccccc2)c2ccccc2)C1 (stereo unspecified) | inactive: 0.2%
CC(C)CC(=O)NC(Sc1ccc(Cl)cc1)C(Cl)(Cl)Cl (stereo unspecified) | inactive: -4%
Nc1cc(N)c2nonc2c1[N+](=O)[O-] | inactive: -2.5%
Cc1c2non([O-])c-2c(C)[n+](=O)[n+]1[O-] | inactive: -3.5%
O=C(NC(Sc1ccncn1)C(Cl)(Cl)Cl)c1ccccc1 (stereo unspecified) | inactive: -6.1%
Oc1ccccc1CNc1ccccn1 | inactive: -2.2%
Cc1cc(=O)[nH]c(N[N+](=O)[O-])n1 | inactive: 6.6%
O=C(OC1CN2CCC1CC2)C12CC3CC(CC(C3)C1)C2 (stereo unspecified) | inactive: 8.3%
Cc1c2c(nc3ccccc13)SC(C(Cl)Cl)C2 (stereo unspecified) | inactive: -17%
COc1cc(I)ccc1[As](=O)(O)O | inactive: 2.6%
COc1ccc2nc(NP(=O)(c3ccccc3)c3ccccc3)sc2c1 | inactive: -10.7%
COc1ccc(N/C(=N/P(=O)(N2CCOCC2)N2CCOCC2)N2CCOCC2)cc1 | inactive: 6.6%
O=[As](O)(c1ccc(O)cc1)c1ccccc1O | inactive: -3%
C[As](=O)(O)c1cccc(C(=O)O)c1 | inactive: -7.2%
Cc1ccc2nc3c(c(C)c2c1)CC(C(Cl)Cl)S3 (stereo unspecified) | inactive: -4.3%
Cc1ccc(OP(=O)(Nc2ccc([N+](=O)[O-])cn2)Oc2ccc(C)cc2)cc1 | inactive: 6%
CC(C)c1ccc(OP(=O)(Nc2ccccn2)Oc2ccccc2F)cc1 (stereo unspecified) | inactive: -4.6%
ClCCSc1nnc(-c2cccnc2)o1 | inactive: -5%
O=[N+]([O-])c1cc([N+](=O)[O-])c(-c2ccn[nH]2)s1 | inactive: 1%
CCN(CC)C(=S)SC(NC=O)C(Cl)(Cl)Cl (stereo unspecified) | inactive: 4.2%
CC(C)NC(=O)NP(=O)(Oc1ccccc1)Oc1ccccc1 | inactive: 4.6%
CCOC(=O)Nc1ccc([As](=O)(O)O)c(O)c1 | inactive: -11.8%
Cc1cc(SC(NC(=O)c2ccccc2)C(Cl)(Cl)Cl)nc(C(C)C)n1 (stereo unspecified) | inactive: -12.8%
CCCCOc1ccc(C(=O)NCC2(N3CCCCC3)CCCCC2)cc1OC | inactive: -4%

SMILES | decrease of EGFP signal
CCOC(=O)Nc1cccc([As](=O)(O)O)c1 | inactive: -5.9%
O=[N+]([O-])c1ccc(Nc2ccc(Oc3ccc([N+](=O)[O-])cc3[N+](=O)[O-])cc2)c([N+](=O)[O-])c1 | inactive: 0.1%
Cc1cc(SC(NC=O)C(Cl)(Cl)Cl)ncn1 (stereo unspecified) | inactive: 8.6%
O=P(Nc1ccccn1)(c1cccc2ccccc12)c1cccc2ccccc12 | inactive: -1.2%
COP1(=S)c2c(C)nn(CCC#N)c2N=C(c2ccc(F)cc2)N1C (stereo unspecified) | inactive: 2.3%
O=C(Nc1ccncc1[N+](=O)[O-])c1ccc([N+](=O)[O-])cc1[N+](=O)[O-] | inactive: -17.6%
O=C(COc1ccccc1)OC1CN2CCC1CC2 (stereo unspecified) | inactive: 7%
CCOC(=O)c1ccc(NC(=O)C(C)(CCl)SC)cc1 (stereo unspecified) | inactive: -3.3%
O=C(OC1CN2CCC1CC2)c1cccc([N+](=O)[O-])c1 (stereo unspecified) | inactive: 3%
CCC(C)N(CC(C)C)C(=S)SC(NC(C)=O)C(Cl)(Cl)Cl (stereo unspecified) | inactive: -0.8%
CCOP(=O)(Nc1ccc(C)cn1)OCC | inactive: -5.2%
CCOP(=O)(NC(=NC(C)c1ccccc1)NC(C)c1ccccc1)OCC (stereo unspecified) | inactive: -13.7%
CCC1=CC2Cc3nc4ccc(Cl)cc4c(N)c3C(C1)C2 (stereo unspecified) | inactive: -6.6%
O=P1(Nc2ccccn2)COc2ccccc2OC1 | inactive: -18.8%
CC(C)(C)C(=O)NC(Sc1ncccn1)C(Cl)(Cl)Cl (stereo unspecified) | inactive: -3.7%
Clc1n[nH]nc1-c1nn[nH][15n]1 | inactive: -4.1%
O=[As](O)(c1ccccc1Br)c1ccccc1Br | inactive: -12.4%
CN(C(=O)Cc1ccc(Cl)c(Cl)c1)[C@@H]1CCCC[C@H]1N1CCCC1 | inactive: -4%
CC(C)/C=N\N=C(\N)N[N+](=O)[O-] | inactive: 3.4%
Cc1ccc(C(=O)OC2CN3CCC2CC3)cc1 (stereo unspecified) | inactive: 1.2%
CC1CCC(C(C)C)C(OP(=O)(Nc2ccccn2)c2ccccc2)C1 (stereo unspecified) | inactive: 0.2%
Cc1nn(-c2ccccc2)c2c1P(=O)(N1CCOCC1)N(C)C(c1ccccc1)=N2 (stereo unspecified) | inactive: 8.2%
O=C(/C=C/c1ccccc1)OC1CN2CCC1CC2 (stereo unspecified) | inactive: -2.9%
CN(C)C1(CNC(=O)c2ccc(S(C)(=O)=O)cc2)CCCCC1 | inactive: -7.2%
O=P1(Nc2ncccn2)COc2ccccc2OC1 | inactive: -212%
O=P1(Nc2ccc(Br)cn2)COc2ccccc2OC1 | inactive: 0.1%

SMILES | decrease of EGFP signal
Cc1ccc(OCC(=O)OC2CN3CCC2CC3)cc1 (stereo unspecified) | inactive: -5.7%
O=[As](O)(c1cccs1)c1cccs1 | inactive: 0.1%
Nc1cccc([As](=O)(O)c2ccccc2)c1 | inactive: -5.9%
CS(=O)(=O)c1cc([N+](=O)[O-])c2no[n+]([O-])c2c1 | inactive: -9.9%
O=P(Nc1nccs1)(c1ccccc1)c1nc2ccccc2s1 (stereo unspecified) | inactive: -8.5%
O=P(Nc1nccs1)(Oc1ccccc1)Oc1ccccc1 | inactive: 5.6%
CCOP1(=S)c2c(C)nn(CCC#N)c2N=C(c2ccccc2F)N1C (stereo unspecified) | inactive: -7.5%
O=C(O)COc1ccc([As](=O)(O)O)cc1[N+](=O)[O-] | inactive: 7.7%
Nc1ccccc1[As](=O)(O)c1ccccc1 | inactive: 4.7%
NC(=O)Nc1ccc([As](=O)(O)O)cc1 | inactive: -0.2%
O=[N+]([O-])c1ccc2c(c1)nnn2O | inactive: -3.6%
CCOP1(=S)c2c(C)nn(CCC#N)c2N=C(c2ccc(F)cc2)N1C (stereo unspecified) | inactive: -17.2%
CN(C(=O)Cc1ccccc1)[C@@H]1CC[C@]2(CCCO2)C[C@H]1N1CCCC1 | inactive: -3.1%
CS(=O)(=O)c1ccc(Cl)c(NC(=O)COC(=O)C(O)(c2ccccc2)c2ccccc2)c1 | inactive: -7.5%
COc1cc(C(=O)NCC2(N3CCOCC3)CCCCC2)cc(Cl)c1OC(C)C | inactive: 11.2%
O=[As](O)(O)c1cccnc1 | inactive: -10.4%
O=C(OC1CN2CCC1CC2)c1ccc(Cl)cc1 (stereo unspecified) | inactive: 0.5%
O=[As](O)(c1cccc(O)c1)c1cccc(O)c1 | inactive: -7.7%
Cc1cccc(OCC(=O)OC2CN3CCC2CC3)c1 (stereo unspecified) | inactive: -11.7%
CCCOP(=S)(Nc1nc(N)cc(=O)[nH]1)OCCC | inactive: 3.9%
Cc1ccc(NCCc2c([N+](=O)[O-])cc([N+](=O)[O-])cc2[N+](=O)[O-])cc1 | inactive: 3.8%
Nc1cccc2c([As](=O)(O)O)cccc12 | inactive: -24.6%
CCOP(=O)(Nc1cccc2ccccc12)OCC | inactive: -3.6%
COc1cc(C2NCCC3(OCCO3)C2(C)C)cc(OC)c1OC (stereo unspecified) | inactive: -1.7%
